We go through one molecule from patent US20160168185A1.

The nature of series [1]: Human plasma stability assay.
A short description of series [2]: Human liver microsome stability assay. The following applies: 0.5 mg/mL microsomes, 37° C. It counts as in vitro ADME.

As for `CC(C)N(CCCNC(=O)Nc1ccc(C(C)(C)C)cc1)C[C@H]1O[C@@H](n2cnc3c(N)ncnc32)[C@H](O)[C@@H]1O` [SYC-522], the “stability in human plasma in words” value in series [1] was “reasonably stable”. Moreover, the “remaining after 1 h in human plasma” value in series [1] (5 μM, 37° C., 1 h) is 90%. The “unchanged after 1 h in human liver microsomes” value in series [2] is given as 50%.
